Target: T1, human ROR1 on the cell surface (human, UniProt Q01973)
T1 construct: whole, on cells; also called cell-surface ROR1; ROR1 on A549, PA-1, Kasumi-2, MHH-ES1, HEK293.hROR1 cells
Test: flow cytometry on A549 (ROR1 hi) cells, YEL-B-HLog median fluorescence, bars at 12 concentrations up to 122 nM

B1: P3A1 hFc (S239C) MA-PEG4-vc-PAB-EDA-PNU159682 (Fc fusion, name in EU numbering)
chain: TRVDQTPRTATKETGESLTINCVLTDTSYGLYSTSWFRKNPGTTDWERMSIGGRYVESVNKGAKSFSLRIKDLTVADSATYYCKAREARHPWLRQWYDGAGTVLTVNGGGGSGGGGSGGGGS[in this place human IgG1 Fc with changes]
modifications: MA-PEG4-vc-PAB-EDA-PNU159682 on the engineered Cys S239C (EU numbering)
notes: also called P3A1-hFc-PNU
Q: B1 was tested. Which “EC50 (read off the curve)” value did it give?
A: Its value is roughly 2 nM.

Source: patent US20250269051A1 (ALMAC DISCOVERY, published 2025)
